{"sequences": {"note": "Protein sequences, listed by entry. Tags and fused reporters are not part of them. Residues count along the entry.", "UniProt P10636, 561-689 P618L limits assumed": "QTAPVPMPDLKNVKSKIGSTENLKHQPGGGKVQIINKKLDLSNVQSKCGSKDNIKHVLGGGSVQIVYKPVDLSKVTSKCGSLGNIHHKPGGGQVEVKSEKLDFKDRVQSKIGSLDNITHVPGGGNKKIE"}, "source": "PubChem BioAssay AID1460", "about": "(National Center for Advancing Translational Sciences (NCATS), 2008)", "note": "Only a part is listed here, and it is no random draw. Records with an inconclusive call do not appear. Active and inactive are the calls of the source. Calls follow the shape of the dose curve; as a rule, active = well fitted inhibition curve with a large enough effect; inconclusive = small, poorly fitted or top-dose-only effect; inactive = flat fitted curve, though single readings scatter. % is scaled to controls: 0 for no effect and ±100 for the full control effect.", "data": [{"target": "Microtubule-associated protein tau (Homo sapiens) (UniProt P10636)", "test": "qHTS for Inhibitors of Tau Fibril Formation, Thioflavin T Binding; also: nearly all actives have a fitted effect of over 55% in size", "details": "recombinant tau K18 P301L (four-repeat tau fragment), heparin-induced fibrillization, ThT fluorescence; at 57.4 µM (top of the series)", "values": [{"smiles": "O=C(OC1CN2CCC1CC2)C1c2ccccc2Oc2ccccc21", "note": "(configuration not stated)", "activity, negative = inhibition": "inactive: -7.84%"}, {"smiles": "N#CC1(Nc2ccccc2)CCN(Cc2ccccc2)CC1", "activity, negative = inhibition": "inactive: -9.41%"}, {"smiles": "CCOC(=O)N1CCC(Nc2ccc(OC)cc2)CC1", "activity, negative = inhibition": "inactive: -6.58%"}, {"smiles": "O=C(NCC1(N2CCOCC2)CCCCC1)c1cc2ccccc2o1", "activity, negative = inhibition": "inactive: -15.1%"}, {"smiles": "COc1ccc(C(=O)NCC2(N3CCCCC3)CCCCC2)c(OC)c1OC", "activity, negative = inhibition": "inactive: 2.8%"}, {"smiles": "COc1ccccc1C(=O)NCC1(N2CCOCC2)CCCCC1", "activity, negative = inhibition": "inactive: -6.26%"}, {"smiles": "COc1ccc(NC2CCN(CCc3ccccc3)CC2)c(OC)c1", "activity, negative = inhibition": "inactive: -18.6%"}, {"smiles": "O=C(NCC1(N2CCOCC2)CCCCC1)c1ccc(Cl)cc1", "activity, negative = inhibition": "inactive: -1.43%"}, {"smiles": "O=C(NCC1(N2CCOCC2)CCCCC1)c1cc(=O)[nH]c2ccccc12", "activity, negative = inhibition": "inactive: -6.38%"}, {"smiles": "COc1ccc(NC2CCN(C(=O)OC(C)(C)C)CC2)cc1", "activity, negative = inhibition": "inactive: -16.4%"}, {"smiles": "CN1CCN(CCOC(=O)C(O)(c2ccccc2)c2ccccc2)CC1", "activity, negative = inhibition": "inactive: -4.56%"}, {"smiles": "O=[N+]([O-])c1cc([N+](=O)[O-])c(NCC2CCS(=O)(=O)C2)c([N+](=O)[O-])c1", "note": "(configuration not stated)", "activity, negative = inhibition": "inactive: -14.6%"}, {"smiles": "CCCOc1cccc(C(=O)NCC2(N3CCOCC3)CCCCC2)c1", "activity, negative = inhibition": "inactive: 1.3%"}, {"smiles": "N#CC1(Nc2ccccc2)CCN(CCc2ccccc2)CC1", "activity, negative = inhibition": "inactive: 2.65%"}, {"smiles": "O=C(NCC1(N2CCCCC2)CCCCC1)c1cccc([N+](=O)[O-])c1", "activity, negative = inhibition": "inactive: 3.42%"}, {"smiles": "CCOc1ccc(C(=O)NCC2(N3CCOCC3)CCCCC2)cc1", "activity, negative = inhibition": "inactive: 1.98%"}, {"smiles": "CCCCOc1ccccc1C(=O)NCC1(N2CCOCC2)CCCCC1", "activity, negative = inhibition": "inactive: -13.4%"}, {"smiles": "O=C(NCC1(N2CCOCC2)CCCCC1)c1ccccc1Br", "activity, negative = inhibition": "inactive: 8.56%"}, {"smiles": "O=C(OC1CN2CCC1CC2)c1ccc([N+](=O)[O-])cc1", "note": "(configuration not stated)", "activity, negative = inhibition": "inactive: -3.36%"}, {"smiles": "CC(C)c1ccc(NC2CCN(C(=O)OC(C)(C)C)CC2)cc1", "activity, negative = inhibition": "inactive: -11.8%"}, {"smiles": "COc1ccc(CN(CCCl)CCCl)cc1Cl", "activity, negative = inhibition": "inactive: -6.81%"}, {"smiles": "CN(C)c1cccc(C(=O)NCC2(N3CCCCC3)CCCCC2)c1", "activity, negative = inhibition": "inactive: -8.85%"}, {"smiles": "O=C(OC1CN2CCC1CC2)C1c2ccccc2C=Cc2ccccc21", "note": "(configuration not stated)", "activity, negative = inhibition": "inactive: -0.858%"}, {"smiles": "N/C(=N\\O)c1c(N)no[n+]1[O-]", "activity, negative = inhibition": "inactive: 1.99%"}, {"smiles": "COc1ccc(C(=O)NCC2(N3CCOCC3)CCCCC2)cc1OC", "activity, negative = inhibition": "inactive: -6.59%"}, {"smiles": "c1ccc(CN2CCC(Nc3ccccc3)CC2)cc1", "activity, negative = inhibition": "inactive: -5.41%"}, {"smiles": "O=C(NCC1(N2CCOCC2)CCCCC1)c1ccccc1", "activity, negative = inhibition": "inactive: 2.03%"}, {"smiles": "CCOC(=O)C(CC)C1=NC(C)(C)Cc2ccccc21.O=[N+]([O-])c1cc([N+](=O)[O-])c(O)c([N+](=O)[O-])c1", "note": "(configuration not stated)", "activity, negative = inhibition": "inactive: -5.59%"}, {"smiles": "O=C(NCC1(N2CCOCC2)CCCCC1)c1ccccc1[N+](=O)[O-]", "activity, negative = inhibition": "inactive: -6.05%"}, {"smiles": "N#Cc1ccc(C(=O)NCC2(N3CCCCC3)CCCCC2)cc1", "activity, negative = inhibition": "inactive: -2.1%"}, {"smiles": "O=C(NCC1(N2CCOCC2)CCCCC1)c1ccc([N+](=O)[O-])cc1", "activity, negative = inhibition": "inactive: -5.17%"}, {"smiles": "Cc1ccccc1C(=O)NCC1(N(C)C)CCCCC1", "activity, negative = inhibition": "inactive: 5.38%"}, {"smiles": "CC(C)(C)c1ccc(C(=O)NCC2(N3CCOCC3)CCCCC2)cc1", "activity, negative = inhibition": "inactive: -6.85%"}, {"smiles": "CN(C)c1ccc(C(=O)NCC2(N3CCCCC3)CCCCC2)cc1", "activity, negative = inhibition": "inactive: -5.02%"}, {"smiles": "CCN1CCC(Nc2cccc(F)c2)CC1", "activity, negative = inhibition": "inactive: -5.04%"}, {"smiles": "Fc1ccccc1NC1CCN(Cc2ccccc2)CC1", "activity, negative = inhibition": "inactive: -0.416%"}, {"smiles": "CN(C)C1(CNC(=O)c2ccc(C(C)(C)C)cc2)CCCCC1", "activity, negative = inhibition": "inactive: 1.64%"}, {"smiles": "COc1cc(OC)cc(C(=O)NCC2(N3CCOCC3)CCCCC2)c1", "activity, negative = inhibition": "inactive: 4.78%"}, {"smiles": "COc1cc(C(=O)NCC2(N3CCOCC3)CCCCC2)cc(OC)c1OC", "activity, negative = inhibition": "inactive: 8.56%"}, {"smiles": "CCC(CO)(C(=O)OC1CN2CCC1CC2)c1ccccc1", "note": "(configuration not stated)", "activity, negative = inhibition": "inactive: 3.92%"}, {"smiles": "CC(C)(C)OC(=O)N1CCC(Nc2ccccc2)CC1", "activity, negative = inhibition": "inactive: -8.46%"}, {"smiles": "CCOc1ncccc1C(=O)NCC1(N2CCOCC2)CCCCC1", "activity, negative = inhibition": "inactive: -2.66%"}]}]}
